From US9011882B2, “Dimethylarginine dimethylaminohydrolase inhibitors and methods of use thereof” (The Board of Trustees of the Leland Stanford Junior …, priority 2012, dated 2015)

By UniProt entry, the sequences of proteins in these tests, tags left out.
UniProt O94760, whole entry: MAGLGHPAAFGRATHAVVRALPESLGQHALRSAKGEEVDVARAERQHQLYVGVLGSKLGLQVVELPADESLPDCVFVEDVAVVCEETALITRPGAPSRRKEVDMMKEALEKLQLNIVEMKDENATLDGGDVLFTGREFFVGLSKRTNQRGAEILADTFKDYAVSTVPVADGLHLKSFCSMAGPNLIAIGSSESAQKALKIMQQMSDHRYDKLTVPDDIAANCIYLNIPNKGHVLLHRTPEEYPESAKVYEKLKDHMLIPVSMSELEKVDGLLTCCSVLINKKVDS

Target: human DDAH1 (Homo sapiens (Human), UniProt O94760)
Assay: Inhibitors of human DDAH-1 validated in full dose-response curves (Table 1)
Type: biochemical

CP(=O)(O)c1nc2ccccc2s1
Hill Slope: 1.7
